According to patent publication US20210113687A1, “METHODS FOR TREATING INFLAMMATION” (NEW YORK UNIVERSITY, priority 2013, published 2021):

Target: UNC5b on mouse macrophages (mouse) (UniProt Q8K1S3)
Assay: cell-based or functional assay

Substance	inhibition of migration of naive macrophages to CCL19 by conditioned medium of oxLDL-treated macrophages	inhibition of MCP-1 induced migration of RAW264.7 macrophages (Boyden chamber)
netrin-1 secreted by mouse macrophages (conditioned medium of oxLDL-, CoCl2-, HIF-1alpha- or palmitate-treated macrophages) (from UniProt O09118 25-604) (ligand)	80%	
recombinant netrin-1 (mouse or chicken from R&D Systems) (from UniProt O09118 25-604) (ligand)		> 90%
